Test results as given in patent EP4567034A1 (Korea Institute of Science and Technology, priority 2022, dated 2024).

Protein sequences, listed by entry. Tags and fused reporters are not part of them.
UniProt P21453, whole entry: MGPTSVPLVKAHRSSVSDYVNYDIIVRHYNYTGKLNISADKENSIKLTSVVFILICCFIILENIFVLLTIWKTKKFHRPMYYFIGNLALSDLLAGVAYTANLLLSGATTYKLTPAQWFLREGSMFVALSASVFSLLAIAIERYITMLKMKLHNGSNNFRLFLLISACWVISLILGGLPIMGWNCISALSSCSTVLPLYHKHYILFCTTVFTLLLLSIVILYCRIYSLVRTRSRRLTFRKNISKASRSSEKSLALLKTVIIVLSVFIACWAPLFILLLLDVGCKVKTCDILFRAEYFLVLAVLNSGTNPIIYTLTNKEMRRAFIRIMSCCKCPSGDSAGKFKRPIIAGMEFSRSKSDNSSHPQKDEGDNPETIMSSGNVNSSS

What was measured:
[1] = biological target: T1, S1P1 receptor (Homo sapiens, UniProt P21453); test: S1P1 receptor internalization (endosome formation) assay in S1P1 overexpressing cell line (DiscoverX), luminescence; type: cell-based
[2] = biological target: T1, S1P1 receptor; test: S1P1 β-arrestin recruitment assay in S1P1 overexpressing cell line (DiscoverX), luminescence; type: cell-based

Structure (SMILES) | EC50 [1] | EC50 [2]
CC(C)(C)c1ccc(-c2ncc(-c3ccc(CN4CC(C(=O)O)C4)cc3)[se]2)cc1 [Compound 2, Sodium 1-(4-(2-(4-tert-butylphenyl)-1,3-selenazole-5-yl)benzyl)azetidine-3-carboxylate] | 2.2 nM | 2.12 nM
CC(C)Oc1ccc(-c2ncc(-c3ccc(CN4CC(C(=O)O)C4)cc3)[se]2)cc1Cl [Compound 13, Sodium 1-(4-(2-(3-chloro-4-isopropoxyphenyl)-1,3-selenazole-5-yl)benzyl)azetidine-3-carboxylate] | 0.049 nM | 0.22 nM
CCOc1ccc(-c2ncc(-c3ccc(CN4CC(C(=O)O)C4)cc3)[se]2)cc1Cl [Compound 15, Sodium 1-(4-(2-(3-chloro-4-ethoxyphenyl)-1,3-selenazole-5-yl)benzyl)azetidine-3-carboxylate] | 0.27 nM | 0.54 nM
CC(C)(C)c1ccc(-c2ncc(-c3ccc(CN4CCC(C(=O)O)C4)cc3)[se]2)cc1 (stereo not drawn) [Compound 31, Sodium 1-(4-(2-(4-tert-butylphenyl)-1,3-selenazole-5-yl)benzyl)pyrrolidine-3-carboxylate] | 4.21 nM | 2.59 nM
CC(C)Oc1ccc(-c2ncc(-c3ccc(CN4CCC(C(=O)O)C4)cc3)[se]2)cc1Cl (stereo not drawn) [Compound 34, Sodium 1-(4-(2-(3-chloro-4-isopropoxyphenyl)-1,3-selenazole-5-yl)benzyl)pyrrolidine-3-carboxylate] | 0.58 nM | 1.08 nM
CC(C)Oc1ccc(-c2ncc(-c3ccc(CNCC(=O)O)cc3)[se]2)cc1Cl [Compound 36, Sodium 2-(4-(2-(3-chloro-4-isopropoxyphenyl)-1,3-selenazole-5-yl)benzylamino)acetate] | 2.62 nM | 2.03 nM
CC(C)Oc1ccc(-c2ncc(-c3ccc(CNCCC(=O)O)cc3)[se]2)cc1Cl [Compound 38, Sodium 3-(4-(2-(3-chloro-4-isopropoxyphenyl)-1,3-selenazole-5-yl)benzylamino)propanoate] | 0.14 nM | 0.58 nM
CC(C)(C)c1ccc(-c2cnc(-c3ccc(CN4CC(C(=O)O)C4)cc3)[se]2)cc1 [Compound 40, Sodium 1-(4-(5-(4-tert-butylphenyl)-1,3-selenazole-2-yl)benzyl)azetidine-3-carboxylate] | 23.1 nM | 10.6 nM
CC(C)Oc1ccc(-c2cnc(-c3ccc(CN4CC(C(=O)O)C4)cc3)[se]2)cc1Cl [Compound 42, Sodium 1-(4-(5-(3-chloro-4-isopropoxyphenyl)-1,3-selenazole-2-yl)benzyl)azetidine-3-carboxylate] | 0.37 nM | 0.81 nM
